Ab-95 light chain CDR variants: yeast mating affinities

Data: MIT Lincoln Laboratory AlphaSeq set, Engelhart et al. 2022, doi:10.1038/s41597-022-01779-4, as distributed in FLAb.

Binding partner: SARS-CoV-2 spike HR2 peptide, sequence PDVDLGDISGINAS.

Each scFv is VH, a 15-residue (Gly4Ser)3 linker, VL, as in the parent Ab-95, and differs from it in the CDRs of the light chain only.
VH: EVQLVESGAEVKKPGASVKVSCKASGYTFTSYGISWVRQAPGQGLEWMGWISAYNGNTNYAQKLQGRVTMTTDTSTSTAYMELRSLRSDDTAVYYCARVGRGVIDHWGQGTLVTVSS
VL: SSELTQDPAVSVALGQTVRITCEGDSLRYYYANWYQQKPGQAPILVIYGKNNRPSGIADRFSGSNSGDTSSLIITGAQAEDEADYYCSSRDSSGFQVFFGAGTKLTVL

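The parent was found by panning a naive human phage display library on the peptide. Variants in AAYL52 differ from the parent at up to three CDR positions; double and triple changes were sampled at random. The scFvs were displayed on barcoded MATa yeast, the peptide on MATalpha yeast. Mating (16 h, 30 °C) was followed by selection of diploids and sequencing of their barcodes. Each replicate has its own calibration line, from reference interactions of the BCL2 family. Mating was done three times.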

Substitutions are numbered in sequence along the VL above, starting at 1 (not Kabat). Values are log10 of the apparent Kd in nM; lower means stronger binding. "n.d." means that the variant was in the library but no mating with the target was seen in that replicate; the authors take this as a sign of poor binding, and no number exists. As a blank, each scFv also met three strains without target: over library AAYL52, 28% of these pairings were detected, typically at 3.91 and seldom below 2.90. For each scFv, signals with the empty controls are counted beside the result, with their mean in brackets.

| changes | log10 Kd (nM) by replicate | empty controls |
|---|---|---|
| Y29A/R53S/Q96P | 3.22 / 3.30 / n.d. | 5/9 (3.65) |
| R90N/D91P | 3.04 / 5.28 / n.d. | 1/9 (4.41) |
| L27V/Y31A/S55C | 2.38 / 2.78 / 2.64 | 0/9 |
| G49K/N51R/D91W | n.d. / 3.96 / n.d. | 2/9 (4.95) |
| A32W/N52V/R53L | 4.13 / 3.91 / 4.64 | 3/9 (4.17) |
| E23I/S26I/F98R | 4.64 / n.d. / 4.30 | 3/9 (3.43) |
| L27V/R28H/Y29R | 4.35 / 4.59 / 3.17 | 6/9 (3.98) |
| S88F/R90I | 2.68 / 2.85 / 2.12 | 1/9 (3.79) |
| G24A/R28Q/Y30Q | 1.32 / 1.26 / 0.90 | 3/9 (3.68) |
| G49F/N52I/F95N | 5.18 / 3.88 / n.d. | 1/9 (3.27) |
| E23H/S26R/G94D | 2.06 / 1.96 / 2.23 | 2/9 (3.91) |
| Y31R/N51Y/S89V | n.d. / 3.95 / 3.95 | 0/9 |
| S26Q/Y31R/A32I | 3.34 / n.d. / n.d. | 4/9 (4.43) |
| E23T/L27R/R90C | n.d. / n.d. / n.d. | 1/9 (3.10) |
| G24R/D25L/S55Y | 3.72 / 3.40 / 2.68 | 2/9 (3.57) |
| E23L/S88H/F95V | 2.88 / 2.98 / 3.25 | 3/9 (3.61) |
| A32I/R90W | n.d. / n.d. / n.d. | 3/9 (4.41) |
| S26F/S88G/F98I | n.d. / n.d. / n.d. | 1/9 (2.73) |
| Y30V/K50H/P54D | 2.76 / 3.07 / 2.35 | 3/9 (3.27) |
| L27Q/R28E/R53G | 3.77 / n.d. / n.d. | 2/9 (3.78) |
| R53A/D91H/S92T | n.d. / 3.29 / 4.10 | 1/9 (3.03) |
| D25A/R28S/S88D | 3.76 / 4.83 / n.d. | 2/9 (3.14) |
| N33E/G49I/Q96E | n.d. / n.d. / n.d. | 2/9 (2.95) |
| N52G/S55Q/F95E | 2.32 / 2.45 / 1.65 | 1/9 (3.42) |
| Y31E/S55T/R90S | 2.57 / 2.28 / 1.78 | 6/9 (3.83) |
| D25R/R28K/Y31A | 1.67 / 1.45 / 0.92 | 6/9 (3.56) |
| G24T/R28W/F98H | 3.95 / 4.20 / 3.28 | 2/9 (4.17) |
| L27V/S89T/F95W | 2.73 / 2.54 / 2.41 | 0/9 |
| N51V/R90E/F95Y | 3.76 / 3.78 / 4.54 | 3/9 (4.08) |
| P54L/R90C/F95T | n.d. / n.d. / n.d. | 2/9 (3.92) |
| R28W/N52D/S92T | 3.40 / 3.60 / 2.83 | 2/9 (3.87) |
| R28L/N51I/F95E | n.d. / 3.41 / 3.08 | 3/9 (3.95) |
| N52I/G94K/V97C | n.d. / n.d. / n.d. | 0/9 |
| D25K/R90W/F98V | 3.75 / 3.72 / 3.81 | 3/9 (3.13) |
| Y29P/G49S/K50H | 3.81 / 3.42 / 3.32 | 1/9 (3.96) |
| R53H/S88K/Q96T | n.d. / 4.29 / n.d. | 0/9 |
| Y30Q/N51V/F98Q | 2.24 / 2.45 / 2.10 | 1/9 (3.05) |
| E23K/D25I/D91Y | 3.12 / 2.72 / 3.41 | 3/9 (3.97) |
| L27H/Y31A/G49A | 3.94 / 3.74 / 2.70 | 4/9 (4.01) |
| S26H/L27T/P54R | 4.01 / n.d. / 4.11 | 5/9 (4.04) |
| Y29H/S89Y/F98C | 4.43 / 3.32 / 3.61 | 3/9 (3.31) |
| Y31K/S89Y/F95Y | 3.28 / 2.88 / 2.98 | 3/9 (4.07) |
| L27K/N52Q | n.d. / 5.37 / 4.48 | 4/9 (4.01) |
| D25E/P54I/F98A | 2.33 / 2.76 / 2.94 | 6/9 (3.86) |
| S55C/S88V/V97H | 3.27 / 3.14 / 2.45 | 4/9 (3.73) |
| N33E/K50W/S92L | n.d. / n.d. / 3.60 | 1/9 (4.26) |
| S93C | 2.77 / 3.20 / 2.94 | 2/9 (3.56) |
| G49N/S89M/G94Q | 4.04 / n.d. / n.d. | 1/9 (4.53) |
| R28S/A32W/N52T | 1.93 / 1.90 / 1.98 | 2/9 (3.43) |
| R28N/N33D/F95D | n.d. / n.d. / n.d. | 2/9 (3.49) |
| E23H/L27E/D91G | n.d. / n.d. / n.d. | 3/9 (4.34) |

Excerpt, the final 7 entries:

changes,log10 Kd (nM) by replicate,empty controls
S55C/S88V/V97H,3.27 / 3.14 / 2.45,4/9 (3.73)
N33E/K50W/S92L,n.d. / n.d. / 3.60,1/9 (4.26)
S93C,2.77 / 3.20 / 2.94,2/9 (3.56)
G49N/S89M/G94Q,4.04 / n.d. / n.d.,1/9 (4.53)
R28S/A32W/N52T,1.93 / 1.90 / 1.98,2/9 (3.43)
R28N/N33D/F95D,n.d. / n.d. / n.d.,2/9 (3.49)
E23H/L27E/D91G,n.d. / n.d. / n.d.,3/9 (4.34)

In this assay the parent's reference entry averaged 2.31; its copy inside this library read 2.25.